{
  "source": "paper PMC7773179",
  "about": "“Development and application of high-throughput screens for the discovery of compounds that disrupt ErbB4 signaling: Candidate cancer therapeutics” (PLoS ONE, 2020)",
  "test_system": "BaF3/EGFR+ErbB4 cells",
  "assay": "ErbB4-dependent (NRG1β-induced, IL3-independent) proliferation of BaF3/EGFR+ErbB4 cells, semi-automated MTT assay",
  "format": "cell-based, Mouse",
  "method": "This proliferation is dependent upon exogenous ErbB4 expression.\nAs noted earlier, the BaF3/EGFR+ErbB4 cells are IL3 dependent and this dependency can be rescued by stimulation of ErbB4 coupling to cell proliferation. Therefore, the specificity of each of the 19 candidate ErbB4 inhibitors was tested by assaying inhibition of ErbB4-dependent and IL3-dependent cellular proliferation in parallel.",
  "data": [
    {"molecule": "COc1cc2ncnc(Nc3ccc(F)c(Cl)c3)c2cc1OCCCN1CCOCC1", "note": "[Gefitinib, gefitinib, reference compound]", "values": [
      {"measurement": "NRG1β Emax ± SE in the presence of gefitinib", "result": "0.35 ± 0.05", "unit": "AU"}
    ]}
  ]
}
